# The entries are a selection whose mix differs from that of the whole data set. Calls of active or inactive are those of the source.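 Rule for the calls: active = mean replicate activation of at least 60% and every replicate at or above 60%; inconclusive = mean or all-replicate condition met, but not both; inactive = mean below 60% and not all replicates reaching 60%.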
# Assay: enhancers of HDL lipid transfer via mSR-BI – ldlA[mSR-BI] CHO cells, DiI fluorescence, primary screen (AID 504775);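 note: 0% = median plate neutral-control signal and 100% = twice that signal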
# Details: DiI-HDL uptake fluorescence, 3 h, at 12.5 µM, stronger effect = higher value, 100 = double the neutral-control signal
# Outline: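 Test system: SR-BI-overexpressing, LDLR-lacking CHO cells. Measured by: DiI fluorescence, bottom read. Medium: Ham's F12 with 0.5% BSA, HEPES 25 mM, pH 7.4. Timing: 3 h uptake period with compound, 37 °C.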
row,Structure (SMILES),activation
1,O=P(Nc1nccs1)(c1ccccc1)c1ccccc1,inactive: 6.46%
2,CC(C)C(=O)NC(Sc1ccccc1)C(Cl)(Cl)Cl (stereo not given),inactive: -6.22%
3,c1nnnn1CCn1cnnn1,inactive: 0.532%
4,CC(=O)NC(SC(=S)N(C)C)C(Cl)(Cl)Cl (stereo not given),inactive: 9.66%
5,O=[N+]([O-])c1ccc(O)c(/C=N/Nc2ccc([N+](=O)[O-])cc2[N+](=O)[O-])c1,inactive: 0.939%
6,O=[As](O)(c1ccccc1)c1ccc(O)cc1,inactive: -7.62%
7,C(Cc1nn[nH]n1)Cc1nn[nH]n1,inactive: -4.24%
8,O=C(OC1CN2CCC1CC2)c1cccc(Cl)c1 (stereo not given),inactive: -1.36%
9,COc1ccc(N)c([N+](=O)[O-])c1[N+](=O)[O-],inactive: -6.89%
10,CN(C)C1(CNC(=O)c2ccc(Cl)c(S(N)(=O)=O)c2)CCCCC1,inactive: 14.3%
11,O=P(Nc1ccccn1)(c1ccc(Br)cc1)c1ccc(Br)cc1,inactive: 15.8%
12,C[C@H]1OP(=O)(Oc2ccccc2)[C@H](O)[C@H](O)[C@H]1N=[N+]=[N-] (stereo not given in full),inactive: 10.4%
13,Cc1ccc(OP(=O)(Nc2ccccn2)Oc2ccc(C)cc2)cc1,inactive: 16.7%
14,CC(=O)NC(SC(=S)N(CC(C)C)CC(C)C)C(Cl)(Cl)Cl (stereo not given),inactive: 12.3%
15,COC(=O)c1cc2c(s1)N=C(c1ccccc1)N(C)P2(=O)N1CCOCC1 (stereo not given),inactive: -18.4%
16,CCC(=O)N1C2C3N(C(=O)CC)C1C1N(C(=O)CC)C(C(N1C(=O)CC)N3C(=O)CC)N2C(=O)CC,inactive: 9.8%
17,O=C(OC1CN2CCC1CC2)c1ccccc1 (stereo not given),inactive: 15.7%
18,CN(C)C(=O)Oc1noc2ccccc12,inactive: 8.48%
19,O=c1c2cc([N+](=O)[O-])ccc2[nH]c2c([N+](=O)[O-])cc([N+](=O)[O-])cc12,inactive: -29.5%
20,Cc1ccccc1OP(=O)(Nc1ccccn1)Oc1ccccc1C,inactive: -8.06%
21,CC(NC(=O)COC(=O)C(O)(c1ccccc1)c1ccccc1)c1ccccc1 (stereo not given),inactive: 12.6%
22,O=C(NC1CCS(=O)(=O)C1)NP(=S)(Oc1ccccc1)Oc1ccccc1 (stereo not given),inactive: 4.36%

row,Structure (SMILES),activation
1,CCNC(=S)/N=C(\N)N[N+](=O)[O-],inactive: 12.1%
2,Cc1ccc(NP(=O)(Oc2cccc(C)c2)Oc2cccc(C)c2)nc1,inactive: 23%
3,c1ccc(-c2nn[nH]n2)c(-c2nn[nH]n2)c1,inactive: 16.3%
4,O=P1(N(CCCl)CCCl)OCCC2CCCCN21 (stereo not given),inactive: -12.1%
5,COC(=O)C1(C)COP(=O)(NCc2ccccc2)OC1 (stereo not given),inactive: 12.2%
6,N#C/C(=C\c1ccc(N(CCBr)CCBr)cc1)C(N)=O,inactive: -9.04%
7,CC(=O)c1ccc(N2CC2c2ccncc2)cc1 (stereo not given),inactive: -9.31%
8,C[C@@H]1C=CCP(=O)(Oc2ccccc2)O1 (stereo not given in full),inactive: 15%
9,C[C@H]1OP(=O)(Oc2ccccc2)C[C@@H]2O[C@@H]21 (stereo not given in full),inactive: 2.02%
10,Cc1ccccc1CN(C)C(=O)COC(=O)C(O)(c1ccccc1)c1ccccc1,inactive: 16.9%
11,CC(=O)Nc1ccc(Oc2c([N+](=O)[O-])cc([N+](=O)[O-])cc2[N+](=O)[O-])cc1,inactive: 10%
12,CC(=O)Nc1ccc([As](=O)(O)O)c(O)c1,inactive: 24.8%
13,CCOc1ccc(C2=NCC(CBr)S2)cc1 (stereo not given),inactive: -0.0845%
14,O=P1(Nc2nc3ccc(Cl)cc3s2)COc2ccccc2O1 (stereo not given),inactive: 19.7%
15,CCc1cc(O)c([N+](=O)[O-])c(C)c1[N+](=O)[O-],inactive: 13.2%
16,CC(C)(C)C(=O)NC(Sc1ccccc1)C(Cl)(Cl)Cl (stereo not given),inactive: 15.9%
17,CC(C)CC(=O)NC(Sc1ccc(Cl)cc1)C(Cl)(Cl)Cl (stereo not given),inactive: 3.9%
18,Nc1cc(N)c2nonc2c1[N+](=O)[O-],inactive: 15.5%
19,O=C(NC(Sc1ccncn1)C(Cl)(Cl)Cl)c1ccccc1 (stereo not given),inactive: 16.6%
20,Oc1ccccc1CNc1ccccn1,inactive: -4.36%
21,NC(=O)c1cc([N+](=O)[O-])cc([N+](=O)[O-])c1N,inactive: 12.6%
22,Cc1ccc(N/C(=N/P(=O)(N2CCOCC2)N2CCOCC2)N2CCOCC2)cc1,inactive: 30.7%

row,Structure (SMILES),activation
1,CN(C(=O)Cc1ccc(Cl)c(Cl)c1)[C@H]1CCCC[C@H]1N1CCCC1,inactive: 5.36%
2,COc1ccccc1OP(=O)(Nc1ccc(C)cn1)Oc1ccccc1OC,inactive: 13.5%
3,Clc1ccc(Cl)c(NC2=NCC(CBr)S2)c1 (stereo not given),inactive: -13.3%
4,CN1CCCC(OC(=O)C(c2ccccc2)c2ccccc2)C1 (stereo not given),inactive: 15.3%
5,CCN(N=Nc1nonc1N)c1nonc1N,inactive: 31.8%
6,Nc1cccc2ccc([As](=O)(O)O)cc12,inactive: 9.39%
7,CCCC1OP(N)(=O)OCC1CC (stereo not given),inactive: 6.49%
8,O=C(O)c1ccccc1[As](=O)(O)O,inactive: -4.64%
9,CC(=O)Nc1ccc([As](=O)(O)O)cc1,inactive: 6.8%
10,O=P(Nc1nc2ccc(Cl)cc2s1)(c1ccccc1)c1ccccc1,inactive: -4.08%
11,CN(C(=O)Cc1ccc(Cl)c(Cl)c1)[C@H]1CCCC[C@@H]1N1CCCC1,inactive: 28.6%
12,Cc1ccc(NP(=O)(Oc2ccccc2F)Oc2ccccc2F)nc1,inactive: -4.6%
13,CCOP(=O)(Nc1ccccc1)OCC,inactive: 14%
14,Cc1cc(SC(NC(=O)c2ccc(F)cc2)C(Cl)(Cl)Cl)ncn1 (stereo not given),inactive: -13.9%
15,O=[N+]([O-])c1ncn(CCn2ncnc2[N+](=O)[O-])n1,inactive: -11.9%
16,O=[N+]([O-])c1cccc(NC2=NCC(CBr)S2)c1 (stereo not given),inactive: -2.48%
17,COC(=O)C1(C)COP(=O)(Nc2ccccc2)OC1 (stereo not given),inactive: 10.2%
18,O=C(O)CNc1ccc([As](=O)(O)O)cc1,inactive: 6.76%
19,O=P1(N(CCCl)CCCl)OCCCS1 (stereo not given),inactive: 8.71%
20,O=C(Nc1cc([As](=O)(O)O)ccc1O)c1ccccc1,inactive: -6.28%
21,C[N+]1=C2C=CC=CC=C2SC12C([N+](=O)[O-])=CC([N+](=O)[O-])=C[C-]2[N+](=O)[O-] (stereo not given),inactive: -13.8%
